Target: Tyrosine-protein kinase SYK (Homo sapiens, UniProt P43405)

In the case of `c1cn2cc(-c3ccc4cn[nH]c4c3)nc(Nc3ccc(N4CCOCC4)cc3)c2n1` [ENTOSPLETINIB], the IC50 is reported as 7.7 nM.

From ChEMBL document CHEMBL3259702, “Discovery of GS-9973, a selective and orally efficacious inhibitor of spleen tyrosine kinase” (J Med Chem, 2014)
